Here are results for 1 molecule from US7868037B2 (PTC Therapeutics, Inc., priority 2004, dated 2011).

In this assay the test system is HCV IRES-driven translation. In kind it is cell-based, human.

Consider `COc1ccc(C[C@H](N)C(=O)N[C@H]2[C@@H](O)[C@H](n3cnc4c(N(C)C)ncnc43)O[C@@H]2CO)cc1` [puromycin], for which the “luciferase reporter protein level (HCV IRES-driven) in Western blot” value is given as “inhibited”.
